Experimental data taken from ChEMBL document CHEMBL1128455, “Ribose-modified adenosine analogues as potential partial agonists for the adenosine receptor” (J Med Chem, 1995).

Chains of the proteins cited; added tags and fusions are not shown.
UniProt P30543, whole entry: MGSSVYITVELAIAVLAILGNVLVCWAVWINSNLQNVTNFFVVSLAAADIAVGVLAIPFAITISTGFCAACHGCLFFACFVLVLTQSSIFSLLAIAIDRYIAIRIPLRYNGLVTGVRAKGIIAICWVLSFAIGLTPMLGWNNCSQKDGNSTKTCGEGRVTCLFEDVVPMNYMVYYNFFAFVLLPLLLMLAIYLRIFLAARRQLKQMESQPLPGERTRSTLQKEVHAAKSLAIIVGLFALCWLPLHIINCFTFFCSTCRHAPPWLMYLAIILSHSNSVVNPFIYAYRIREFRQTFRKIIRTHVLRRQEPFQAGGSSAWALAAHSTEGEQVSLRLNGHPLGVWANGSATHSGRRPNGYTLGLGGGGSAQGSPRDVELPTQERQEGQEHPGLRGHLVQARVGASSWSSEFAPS

Molecular target: Adenosine receptor A2a (Rattus norvegicus, UniProt P30543)
Assay: Binding affinity against Adenosine A2A receptor by using [3H]CGS-21680 as radioligand

Ki: 0.14 µM
Structure (SMILES): C[C@H](Cc1ccccc1)Nc1ncnc2c1ncn2[C@@H]1O[C@H](CO)[C@@H](O)[C@H]1O [(R)-PIA]
